Assay [1] concerns the target ^FlagDNAJB1^WT (human) (UniProt P25685). The assay is described as follows: affinity purification with mass spectrometry; TMT-AP-MS comparing ^FlagDNAJB1 WT vs. H32Q, in the absence and presence of DSP crosslinking of the cells; RIPA lysis and washes, M2 anti-Flag beads; two 10 cm plates per condition; three biological replicates.
In assay [2] the target is T1, ^FlagDNAJB1^WT (human, UniProt P25685 1-340).
T1 construct: DNAJB1, human Class B Hsp40; amplified from cDNA derived from HEK293T cells and inserted into pFlag.CMV2; source: HEK293T, transfected (calcium phosphate), in lysate; not shown: Flag, N-terminal, kept
The assay is described as above. Conditions: partners not purified.

As for “BCKDK (from UniProt O14874 31-412) (natural protein; other documents disagree on this pair)”, in assay [1], the fold change of recovery with DNAJB1^WT against DNAJB1^H32Q, +DSP stood at 2.3 fold and the fold change of recovery with DNAJB1^WT against DNAJB1^H32Q, −DSP amounted to 5.1 fold.

B1: TTLL12 (natural protein, human (endogenous in HEK293T), UniProt Q14166 1-644, looked up)
chain: MEAERGPERRPAERSSPGQTPEEGAQALAEFAALHGPALRASGVPERYWGRLLHKLEHEVFDAGEVFGIMQVEEVEEEEDEAAREVRKQQPNPGNELCYKVIVTRESGLQAAHPNSIFLIDHAWTCRVEHARQQLQQVPGLLHRMANLMGIEFHGELPSTEAVALVLEEMWKFNQTYQLAHGTAEEKMPVWYIMDEFGSRIQHADVPSFATAPFFYMPQQVAYTLLWPLRDLDTGEEVTRDFAYGETDPLIRKCMLLPWAPTDMLDLSSCTPEPPAEHYQAILEENKEKLPLDINPVVHPHGHIFKVYTDVQQVASSLTHPRFTLTQSEADADILFNFSHFKDYRKLSQERPGVLLNQFPCENLLTVKDCLASIARRAGGPEGPPWLPRTFNLRTELPQFVSYFQQRERWGEDNHWICKPWNLARSLDTHVTKSLHSIIRHRESTPKVVSKYIESPVLFLREDVGKVKFDIRYIVLLRSVRPLRLFVYDVFWLRFSNRAFALNDLDDYEKHFTVMNYDPDVVLKQVHCEEFIPEFEKQYPEFPWTDVQAEIFRAFTELFQVACAKPPPLGLCDYPSSRAMYAVDLMLKWDNGPDGRRVMQPQILEVNFNPDCERACRYHPTFFNDVFSTLFLDQPGGCHVTCLV
Turning to B1, in assay [2], the “fold change of recovery with DNAJB1^WT against DNAJB1^H32Q, +DSP” value was found to be 2.6 ± 1.3 fold and the “fold change of recovery with DNAJB1^WT against DNAJB1^H32Q, −DSP” value was found to be 3.3 ± 2.2 fold.

The record behind these values is PMC11271386, “Factors affecting protein recovery during Hsp40 affinity profiling” (Analytical and Bioanalytical Chemistry, 2024).
